Measurements from patent US6753317.
pKi: −log10 of the molar value.

Key:
[1] = target: δ-opioid receptor (rat brain synaptosomal preparation) (rat) (UniProt P33533); experiment: radioligand competition vs [^3H]DPDPE, rat brain synaptosomes
[2] = target: δ-opioid receptor of the mouse vas deferens (MVD) (mouse) (UniProt P32300); experiment: cell-based or functional assay

Substance	pKi [1]	IC50 (δ agonist, MVD) [2] [nM]
H-Dmt-Tic-OH (peptide)	10.66	
dermorphin C (peptide)		0.54
